Target: T1, Mevalonate kinase (Streptococcus pneumoniae serotype 2 (strain D39 / NCTC 7466), UniProt A0A0H2ZQX9)
T1 sequence (A0A0H2ZQX9 whole entry): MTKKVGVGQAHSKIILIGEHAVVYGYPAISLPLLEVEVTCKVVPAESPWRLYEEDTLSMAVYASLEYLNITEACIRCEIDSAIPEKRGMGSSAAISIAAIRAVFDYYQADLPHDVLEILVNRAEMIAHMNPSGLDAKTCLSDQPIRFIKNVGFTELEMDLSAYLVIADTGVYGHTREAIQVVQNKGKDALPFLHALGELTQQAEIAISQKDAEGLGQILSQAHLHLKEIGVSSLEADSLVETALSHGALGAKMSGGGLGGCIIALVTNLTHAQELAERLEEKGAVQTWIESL

O=c1c2ccccc2[se]n1-c1ccccc1 [2-Phenyl-benzo[d]isoselenazol-3-one]
IC50: 670 nM

O=C(O)c1cc2ccccc2c(Cc2c(O)c(C(=O)O)cc3ccccc23)c1O [MLS000028605]
IC50: 511 nM

Reference: BindingDB's records for doi:10.7270/Q23X852V (Srmlsc, 2007)
